# According to PubChem BioAssay AID624354 (Sanford-Burnham Center for Chemical Genomics, 2012):
# The entries are a selection whose mix differs from that of the whole data set. Active and inactive are the calls of the source.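 The calls were made as follows: active = compounds causing at least 50% loss of cell viability in the single-dose screen, relative to plate controls; inactive = the rest.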
# Assay: TRAIL-exposed caspase-8 expressing cell killing – NB7+C8 cells, ATPlite luminescence, TRAIL sensitizer project, primary screen (AID 624354)
# Details: at 10 µM, stronger effect = higher value
row,Compound,"inhibition (viability loss, TRAIL sensitization)"
1,CC(C)c1ccc(NC2CCN(C(=O)OC(C)(C)C)CC2)cc1,inactive: 1.05%
2,CCCCn1nnnc1C(c1ccccc1OC(F)(F)F)N1CCC(n2c(=O)[nH]c3ccccc32)CC1 (centres undefined),inactive: 19.5%
3,COc1ccc(CN(CCCl)CCCl)cc1Cl,inactive: 0.148%
4,CN(C)c1cccc(C(=O)NCC2(N3CCCCC3)CCCCC2)c1,inactive: 3.47%
5,COc1cc(OC)c(C(=O)NCC2(N(C)C)CCCCC2)cc1OC,inactive: -5.41%
6,CCC(c1nnnn1C(C)(C)C)N1CCC(n2c(=O)[nH]c3ccccc32)CC1 (centres undefined),inactive: 12.9%
7,O=C(NCC1(N2CCOCC2)CCCCC1)c1cc(F)c(F)cc1Cl,inactive: -7.63%
8,CCCCn1nnnc1C(c1ccnc2ccccc12)N1CCC(n2c(=O)[nH]c3ccccc32)CC1 (centres undefined),inactive: -0.685%
9,CN1CCC(Nc2cccc(F)c2)CC1,inactive: 1.43%
10,O=C(NCC1(N2CCCCC2)CCCCC1)c1cncc(Br)c1,inactive: 2.32%
11,COc1ccc(C(c2nnnn2C2CCCC2)N2CCC(n3c(=O)[nH]c4ccccc43)CC2)cc1 (centres undefined),inactive: -16.4%
12,Cc1ccc(C(=O)NCC2(N(C)C)CCCCC2)o1,inactive: 7.25%
13,CCCOc1ccc(C(=O)NCC2(N(C)C)CCCCC2)cc1OC,inactive: -12.9%
14,CC(C)(C)n1nnnc1C(c1ccccc1OC(F)(F)F)N1CCC(n2c(=O)[nH]c3ccccc32)CC1 (centres undefined),inactive: 1.56%
15,O=C(NCC1(N2CCCCC2)CCCCC1)c1ccc(OC(F)F)cc1,inactive: 5.47%
16,CCN1CCC(Nc2ccc(Cl)cc2)CC1,inactive: 9.74%
17,O=c1[nH]c2ccccc2n1C1CCN(C(c2ccccc2OC(F)(F)F)c2nnnn2C2CCCC2)CC1 (centres undefined),inactive: 11.7%
18,N#CC1(Nc2ccccc2)CCN(CCc2ccccc2)CC1,inactive: 5.1%
19,CSc1ccc(C(=O)NCC2(N3CCOCC3)CCCCC2)cc1,inactive: -4.97%
20,O=C(NCC1(N2CCCCC2)CCCCC1)c1cccc([N+](=O)[O-])c1,inactive: -4.3%
21,O=C(NCC1(N2CCCCC2)CCCCC1)c1cccc(C(F)(F)F)c1,inactive: 19.5%
22,COc1cc(C(=O)NCC2(N3CCCCC3)CCCCC2)ccc1OC(F)F,inactive: 7.1%
23,O=C(NCC1(N2CCOCC2)CCCCC1)c1cc(=O)[nH]c2ccccc12,inactive: -3.31%
24,CN1CCN(CCOC(=O)C(O)(c2ccccc2)c2ccccc2)CC1,inactive: 4.12%
25,COc1ccc(NC2CCN(C(=O)OC(C)(C)C)CC2)cc1,inactive: 5.22%
26,CC(C)c1ccc(C(=O)NCC2(N3CCOCC3)CCCCC2)cc1,inactive: 0.5%
27,CCCCn1nnnc1C(c1cccc2ccccc12)N1CCC(n2c(=O)[nH]c3ccccc32)CC1 (centres undefined),inactive: -9.16%

row,Compound,"inhibition (viability loss, TRAIL sensitization)"
1,CC(C)(C)n1nnnc1C(c1ccccc1)N1CCC(n2c(=O)[nH]c3ccccc32)CC1 (centres undefined),inactive: -13.1%
2,O=C1CCN(Cc2ccccc2)CC1,inactive: -9.3%
3,CCOc1ccc(C)cc1CN(CCCl)CCCl,inactive: 3.44%
4,O=P1(N(CCCl)CCCl)SCCCS1,inactive: -3.63%
5,CCCCn1nnnc1C(c1cc2ccccc2o1)N1CCC(n2c(=O)[nH]c3ccccc32)CC1 (centres undefined),active: 53.4%
6,CCCCOc1ccc(C(=O)NCC2(N3CCOCC3)CCCCC2)cc1,inactive: 13.8%
7,O=C(NCC1(N2CCCCC2)CCCCC1)c1ccc(F)cc1,inactive: 15.9%
8,COc1ccc(NC2CCN(CCc3ccccc3)CC2)c(OC)c1,inactive: 27.1%
9,CCOC(=O)N1CCC(Nc2ccc(F)cc2)CC1,inactive: 4.88%
10,O=c1[nH]c2ccccc2n1C1CCN(C(c2ccccc2)c2nnnn2C2CCCCC2)CC1 (centres undefined),inactive: 14.7%
11,CCOC(=O)N1CCC(Nc2cccc(C)c2)CC1,inactive: -3.13%
12,COc1cc(C(=O)NCC2(N(C)C)CCCCC2)ccc1OC(F)F,inactive: -2.16%
13,O=c1[nH]c2ccccc2n1C1CCN(C(c2cccc3ccccc23)c2nnnn2C2CCCC2)CC1 (centres undefined),inactive: 29.3%
14,COc1ccc(C(=O)NCC2(N3CCCCC3)CCCCC2)cc1,inactive: 14.2%
15,COc1ccc(C(=O)NCC2(N3CCCCC3)CCCCC2)c(OC)c1OC,inactive: 3.5%
16,CC(C)(C)OC(=O)N1CCC(N(C(=O)c2ccccc2)c2ccc(F)cc2)CC1,inactive: -7.8%
17,CCC(c1nnnn1C1CCCC1)N1CCC(n2c(=O)[nH]c3ccccc32)CC1 (centres undefined),inactive: -10.1%
18,O=C(NCC1(N2CCCCC2)CCCCC1)c1ccc(=O)[nH]c1,inactive: 1.2%
19,CCCCn1nnnc1C(CC)N1CCC(n2c(=O)[nH]c3ccccc32)CC1 (centres undefined),inactive: -16.6%
20,O=C(NCC1(N2CCCCC2)CCCCC1)c1cccs1,inactive: 10.6%
21,CCCCn1nnnc1C(c1cccs1)N1CCC(n2c(=O)[nH]c3ccccc32)CC1 (centres undefined),inactive: 8.32%
22,CSc1ccccc1C(=O)NCC1(N2CCCCC2)CCCCC1,inactive: -2.83%
23,Cc1cccc(NC2(C#N)CCN(Cc3ccccc3)CC2)c1,inactive: -9.28%
24,O=C(NCC1(N2CCCCC2)CCCCC1)c1ccc(Cl)nc1,inactive: -9.46%
25,O=c1[nH]c2ccccc2n1C1CCN(C(c2ccccc2OC(F)(F)F)c2nnnn2C2CCCCC2)CC1 (centres undefined),inactive: 5.27%
26,Cc1cc(C)cc(N(C(=O)c2ccccc2)C2CCN(C(=O)OC(C)(C)C)CC2)c1,inactive: -4.25%
27,O=C(NCC1(N2CCOCC2)CCCCC1)c1cc2ccccc2o1,inactive: 7.1%
